We go through 1 substance from patent US11180615B2, “Cationic polyphosphazene compound, polyphosphazenes-drug conjugate compound and method for preparing same” (CNPHARM CO., LTD., priority 2016, dated 2021).

What is called Vz is a proportionality between amount in the body and measured concentration, not a real space.

Data set [1] concerns gastric cancer cell line MKN-28. In words: Nude mouse xenograft trial, MKN-28. As to conditions: MKN-28 xenograft mice, 40 days.
Data set [2] in a line: Pharmacokinetic study after IV injection. The format is in vivo, Sprague-Dawley rat. The following applies: rat, plasma docetaxel, mean.
Data set [3] can be described thus: Particle size distribution by DLS (dynamic light scattering). The format is physicochemical. The procedure:
In the following examples, elemental analysis of carbon, hydrogen and nitrogen for the compounds of the present invention was performed using Perkin-Elmer C, H and N analyzer. Hydrogen and nitrogen nuclear magnetic resonance spectra were measured using Varian Gemini-500 NMR Spectrometer. The particle size distributions of polyphosphazene carrier polymers and their drug conjugates were measured using Malvem Zeta-sizer (Nano-ZS).

Data set [4] has as its system SCC7 tumor cells.

With “[NP(MPEG550)1.5(LysEt-2′-aconitic-docetaxel)0.5]n [Example 14]”, the body weight changes entry in data set [1] is given as “no significant body weight changes”. Moreover, in data set [2], the AUCINF is 1439 ng·h/mL, the AUClast is 1192 ng·h/mL, the C0 is 263 ng/mL and the Cl amounted to 0.984 L/h. For the same substance, in data set [2], the Vz was 7.287 L and the t1/2 was determined as 6.115 h. The “mean diameter (particle size distribution)” value in data set [3] (0.2% in distilled water, DLS) was determined as 60 nm. Also, the “change of micelle size with temperature” value in data set [3] (temperature range of 5˜70° C.) is reported as “not changed significantly”. Further, the “time of maximum tumor accumulation post-injection” value in data set [4] (Cy5.5 labeled, IV) turned out to be 48 h. Moreover, the “accumulation in tumor versus other organs (fluorescence)” value in data set [4] (Cy5.5 labeled, IV, 24 h and 48 h post injection) is given as “accumulated dominantly in tumor”. Further, in data set [4] (quantitative biodistribution, FIG. 8), the “tumor selectivity compared with polyphosphazene carrier polymer” value was “much higher tumor selectivity”.
